Values joined by “and” are separate entries in the source; they are usually repeats but may differ in a detail not shown here. Equal entries are not always repeated.
Legend:
HLA-DQ2.5:DQ2.5-glia-α2 [1] = molecular target: T1, HLA-DQ2.5:DQ2.5-glia-α2 (human; wheat); assay: SPR single cycle, from on- and off-rates, mean of 2
T1 chain 1: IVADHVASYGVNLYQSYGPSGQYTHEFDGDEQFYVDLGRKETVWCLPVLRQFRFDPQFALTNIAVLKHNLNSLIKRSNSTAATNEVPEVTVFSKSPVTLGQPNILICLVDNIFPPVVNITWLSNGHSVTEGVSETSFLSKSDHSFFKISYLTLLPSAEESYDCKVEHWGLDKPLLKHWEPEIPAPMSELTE
T1 chain 2: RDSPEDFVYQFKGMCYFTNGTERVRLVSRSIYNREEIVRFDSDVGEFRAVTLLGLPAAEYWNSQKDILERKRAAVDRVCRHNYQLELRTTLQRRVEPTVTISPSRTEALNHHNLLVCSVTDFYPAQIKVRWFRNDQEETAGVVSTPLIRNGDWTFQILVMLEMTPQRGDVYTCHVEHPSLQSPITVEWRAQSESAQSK
T1 chain 3: PQPELPYPQPE

HLA-DQ2.5:DQ2.5-glia-α1a [2] = molecular target: T2, HLA-DQ2.5:DQ2.5-glia-α1a (human; wheat); assay: SPR, Fab, mean of the runs
T2 chain 1: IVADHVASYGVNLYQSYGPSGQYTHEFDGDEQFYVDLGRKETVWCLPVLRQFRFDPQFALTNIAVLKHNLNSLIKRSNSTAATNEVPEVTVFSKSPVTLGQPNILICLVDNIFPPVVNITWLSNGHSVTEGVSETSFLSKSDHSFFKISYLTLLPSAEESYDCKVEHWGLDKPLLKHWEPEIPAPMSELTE
T2 chain 2: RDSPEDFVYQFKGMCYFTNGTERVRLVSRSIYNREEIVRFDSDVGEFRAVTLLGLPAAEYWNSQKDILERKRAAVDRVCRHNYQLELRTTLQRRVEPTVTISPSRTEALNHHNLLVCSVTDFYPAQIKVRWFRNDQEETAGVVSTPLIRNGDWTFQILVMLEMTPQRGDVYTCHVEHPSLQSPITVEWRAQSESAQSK
T2 chain 3: QLQPFPQPELPY

HLA-DQ2.5:DQ2.5-glia-α1a [3] = molecular target: T2, HLA-DQ2.5:DQ2.5-glia-α1a; assay: SPR kinetics on captured pMHC, 1:1 Langmuir
HLA-DQ2.5:DQ2.5-glia-α1a [4] = molecular target: T2, HLA-DQ2.5:DQ2.5-glia-α1a; assay: SPR, Fab
HLA-DQ2.5:DQ2.5-glia-α1a [5] = molecular target: T2, HLA-DQ2.5:DQ2.5-glia-α1a; assay: SPR, 0.25 µM hIgG1 or scFv over captured pMHC
HLA-DQ2.5:DQ2.5-glia-α1a [6] = molecular target: T2, HLA-DQ2.5:DQ2.5-glia-α1a; assay: SPR steady state from single cycle runs, scFv over captured pMHC
HLA-DQ2.5:DQ2.5-glia-α2 [7] = molecular target: T1, HLA-DQ2.5:DQ2.5-glia-α2; assay: SPR, Fab, mean of the runs
HLA-DQ2.5:DQ2.5-glia-α2 [8] = molecular target: T1, HLA-DQ2.5:DQ2.5-glia-α2; assay: SPR kinetics on captured pMHC, 1:1 Langmuir
HLA-DQ2.5:DQ2.5-glia-α2 [9] = molecular target: T1, HLA-DQ2.5:DQ2.5-glia-α2; assay: SPR single cycle kinetics

B1: 226 scFv (scFv, V domains shown)
VH: QVQLVQSGAEVKKPGSSVKVSCKASGGTFSSYAISWVRQAPGQGLEWMGGIIPIFGTANYAQKFQGRVTITADESTSTAYMELSSLRSEDTAVYYCARGAGPLWFRELVYFQHWGQGTLVTVSS
VL: EIVMTQSPATLSVSPGERATLSCRVSQNIIKNLAWYQQKPGQAPRLLIYDASTRATGIPARFTGSGSGTEFTLTIDDLQSEDSAVYFCQQYNWWPRFGPGTKVDIK
notes: scFv; also called scFv 26; 261
Question: Which Kd (HLA-DQ2.5:DQ2.5-glia-α2 [1]) does the source give for B1 here?
Answer: 170 nM

B2: Fab 4.7C (Fab, V domains shown)
VH: QVQLQQSGPGLVKPSQTLSLTCAISGDSVSSNSAAWNWIRQSPSRGLEWLGRTYYRSKWYNDYAVSVKSRITINPDTSKNQFSLQLNSVTPEDTAVYYCARDRTTGWHPYGMDVWGQGTTVTVSS
VL: DIQVTQSPSFLSASVGDRVTITCRASHDISSYLAWYQHKPWKAPKLLIHAASILQSGVPSRFSGSGSGTEFTLTISSLQPEDFATYYCQDLNSYPLFGQGTRLEIK
notes: Fab fragment
Question: With B2 as the binder, how does the Kd (HLA-DQ2.5:DQ2.5-glia-α1a [2]) read?
Answer: 0.00017 µM

Question: What about the Kd (HLA-DQ2.5:DQ2.5-glia-α1a [3]) of the same binder?
Answer: 0.197 nM and 0.145 nM

Question: And the koff (HLA-DQ2.5:DQ2.5-glia-α1a [3])?
Answer: 0.000177 s⁻¹ and 9.68e-05 s⁻¹

Question: What about the kon (HLA-DQ2.5:DQ2.5-glia-α1a [3]) of the same binder?
Answer: 901000 M⁻¹ s⁻¹ and 670000 M⁻¹ s⁻¹

B3: Fab RF117 (Fab, V domains shown)
VH: QVQLQQSGPGLVKPSQTLSLTCAISGDSVSSSSAAWNWIRQSPSRGLEWLGRTYYRSKWYNDYAVSVKSRITINPDTSKNQFSLQLNSVTPEDTAVYYCARDRTTGWHPYGMDVWGQGTTVTVSS
VL: DVQVTQSPSFLSASVGDRVTITCRASHDISSYLAWYQHKPWKAPKLLIHAASVLQSGVPSRFSGSGSGTEFTLTISSLQPEDFATYYCQNLNSYPLFGQGTRLEIK
notes: Fab fragment; combination mutant of 5.6A with the CDR H3 of 4.7C
Question: What does the source list for B3?
Answer: fold improvement in affinity against the mother clone 107 (HLA-DQ2.5:DQ2.5-glia-α1a [4]): ~3600 fold; Kd (HLA-DQ2.5:DQ2.5-glia-α1a [2]): 20 µM; kon (HLA-DQ2.5:DQ2.5-glia-α1a [3]): 1.83e+06 M⁻¹ s⁻¹ and 2.05e+06 M⁻¹ s⁻¹

B4: R2A1-8E hIgG1 (antibody, V domains shown)
VH: QVQLQQSGPGLVKPSQTLSLTCAISGDSVSSNSAAWNWIRQSPSRGLEWLGRTYYRSKWYNDYAVSVKSRITINPDTSKNQFSLQLNSVTPEDTAVYYCARDSSSGWHPYGMDVWGQGTTVTVSS
VL: DIQVTQSPSFLSASVGDRVTITCRASHDISSYLAWYQHKPGKAPKLLIHAASILQSGVPSRFSGSGSGTEFTLTISSLQPEDFATYYCQQLNSYPLLTFGGGTKVDIKR
notes: full-length human IgG1/kappa made in HEK293E; heavy chain constant region with N297G; also called mAb R2A1-8E
Question: B4 was tested. Which “fold increase in half-life against the scFv” value (“fold increase in half-life” for short) (HLA-DQ2.5:DQ2.5-glia-α1a [5]) did it give?
Answer: ~160 fold

B5: R3A2-9F scFv (scFv, V domains shown)
VH: QVQLQQSGPGLVKPSQTLSLTCAISGDSVSSNSAAWNWIRQSPSRGLEWLGRTYYRSKWYNDYAVSVKSRITINPDTSKNQFSLQLNSVTPEDTAVYYCARDSSSGWHPYGMDVWGQGTTVTVSS
VL: DIQVTQSPSFLSASVGDRVTITCRASHDISSYLAWYQHKPGKAPKLLIHAASILQSGVPSRFSGSGSGTEFTLTISSLQPEDFATYYCQDLNSYPLFGQGTRLEIK
notes: scFv from a naive human phage library, made in E. coli with c-myc and His tags
Question: With B5 as the binder, how does the Kd (HLA-DQ2.5:DQ2.5-glia-α1a [6]) read?
Answer: 142 nM

B6: 218 scFv (scFv, V domains shown)
VH: QVQLVQSGAEVKKPGSSVKVSCKASGGTFSSYAISWVRQAPGQGLEWMGGIIPIFGTANYAQKFQGRVTITADESTSTAYMELSSLRSEDTAVYYCARGYYYDSSALDYWGQGTLVTVSS
VL: QSALIQPASVSGSPGQSITISCTGTSSDVGGYGYVSWYQHHPGKAPKLIIYDVSNRPSGVSDRFSGSKSANTASLTISGLQTEDEADYYCSSYTSSGTVLFGGGTKLTVL
notes: scFv; also called scFv 18
Question: Which Kd (HLA-DQ2.5:DQ2.5-glia-α2 [1]) does the source give for B6 here?
Answer: 2400 nM

B7: Fab 3.C11 (Fab, V domains shown)
VH: QVQLVQSGAEVKKPGSSVKVSCKASGGTVRSRVHAISWVRQAPGQGLEWMGGIIPIFGTANYAQKFQGRVTITADESTSTAYMELSSLRSEDTAVYYCARDVQRMGMDVWGQGTTVTVSS
VL: DIQMTQSPSSVSTSVGDRVTITCRASQDISNWLAWYQQKPGKAPKLLIYDSSTLQSGVPSRFSGSGSGTDFTLTISTLQPEDFATYYCQQFNSYPLTFGGGTKVDIK
notes: Fab fragment
Question: Which results are given for B7?
Answer: Kd (HLA-DQ2.5:DQ2.5-glia-α2 [7]): 0.088 nM; Kd (HLA-DQ2.5:DQ2.5-glia-α2 [8]): 0.0904 nM and 0.0946 nM and 0.0806 nM; koff (HLA-DQ2.5:DQ2.5-glia-α2 [8]): 0.000113 s⁻¹ and 0.000112 s⁻¹ and 0.000121 s⁻¹; kon (HLA-DQ2.5:DQ2.5-glia-α2 [8]): 1.19e+06 M⁻¹ s⁻¹ and 1.39e+06 M⁻¹ s⁻¹ and 1.34e+06 M⁻¹ s⁻¹

B8: R3A2-9F hIgG1 (antibody)
heavy: not shown
light: DIQVTQSPSFLSASVGDRVTITCRASHDISSYLAWYQHKPGKAPKLLIHAASILQSGVPSRFSGSGSGTEFTLTISSLQPEDFATYYCQDLNSYPLFGQGTRLEIKRTVAAPSVFIFPPSDEQLKSGTASVVCLLNNFYPREAKVQWKVDNALQSGNSQESVTEQDSKDSTYSLSSTLTLSKADYEKHKVYACEVTHQGLSSPVTKSFNRGEC
notes: also called mAb R3A2-9F
Question: For B8, which “fold increase in half-life” value (HLA-DQ2.5:DQ2.5-glia-α1a [5]) is on record?
Answer: ~160 fold

B9: R4A1-3A (107) hIgG1 (antibody, V domains shown)
VH: QVQLQQSGPGLVKPSQTLSLTCAISGDSVSSNSAAWNWIRQSPSRGLEWLGRTYYRSKWYNDYAVSVKSRITINPDTSKNQFSLQLNSVTPEDTAVYYCARDSSSGWHPYGMDVWGQGTTVTVSS
VL: DIQVTQSPSFLSASVGDRVTITCRASHDISSYLAWYQHKPWKAPKLLIHAASILQSGVPSRFSGSGSGTEFTLTISSLQPEDFATYYCQDLNSYPLFGQGTRLEIKR
notes: full-length human IgG1/kappa made in HEK293E; heavy chain constant region with N297G; also called mAb R4A1-3A
Question: How did the “fold increase in half-life” value (HLA-DQ2.5:DQ2.5-glia-α1a [5]) turn out when B9 was run?
Answer: ~160 fold

B10: 217 scFv (scFv, V domains shown)
VH: QVQLVQSGAEVKKPGSSVKVSCKASGGTFSSYAISWVRQAPGQGLEWMGGIIPIFGTANYAQKFQGRVTITADESTSTAYMELSSLRSEDTAVYYCARGAIGVFSGYFDYWGQGTLVTVSS
VL: not shown
notes: scFv; also called scFv 17
Question: What does the source list for B10?
Answer: Kd (HLA-DQ2.5:DQ2.5-glia-α2 [1]): 5080 nM; Kd (HLA-DQ2.5:DQ2.5-glia-α2 [9]): 5 µM

B11: 220 scFv (scFv, V domains shown)
VH: QVQLVESGAEVKKPGSSVKVSCKASGGTFSSYAISWVRQAPGQGLEWMGGIIPIFGTANYAQKFQGRATITADESTSTAYMELSSLRSEDTAVYYCARGRNTYCSGGSCYSPHFDYWGQGTLVTVSS
VL: not shown
notes: scFv; also called scFv20
Question: With B11 as the binder, how does the Kd (HLA-DQ2.5:DQ2.5-glia-α2 [1]) read?
Answer: 730 nM

B12: 221 scFv (scFv, V domains shown)
VH: QVQLVESGAEVKKPGSSVKVSCKASGGTFSSYAISWVRQAPGQGLEWMGGIIPIFGTANYAQKFQGRVTITADESTSTAYMELSSLRSEDTAVYYCARGVPSGYSSGWFYYFDYWGQGTLVTVSS
VL: EIVMTQSPSSLSASVGDRATLSCRASQSVNTNLAWYQQKPGQAPRLLIYGASTRATGSPARFSGSGSGTEFTLTISSLQPGDFATYYCQQYDNYPLTFGQGTKVEIK
notes: scFv; also called scFv 21
Question: With B12 as the binder, how does the Kd (HLA-DQ2.5:DQ2.5-glia-α2 [1]) read?
Answer: 590 nM
